Sequences of proteins named here, by UniProt entry; tags and fusion partners are left off.
UniProt P21452, whole entry: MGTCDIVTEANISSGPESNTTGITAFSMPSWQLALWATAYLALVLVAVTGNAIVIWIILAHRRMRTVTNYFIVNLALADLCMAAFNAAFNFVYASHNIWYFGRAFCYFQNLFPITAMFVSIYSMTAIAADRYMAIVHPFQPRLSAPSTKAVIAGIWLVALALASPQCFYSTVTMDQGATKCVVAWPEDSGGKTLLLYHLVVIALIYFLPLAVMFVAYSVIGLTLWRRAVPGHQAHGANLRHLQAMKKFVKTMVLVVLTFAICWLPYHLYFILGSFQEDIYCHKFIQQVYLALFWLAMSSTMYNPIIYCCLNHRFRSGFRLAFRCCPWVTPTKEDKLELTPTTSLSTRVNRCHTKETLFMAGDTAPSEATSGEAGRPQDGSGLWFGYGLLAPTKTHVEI
UniProt P25103, whole entry: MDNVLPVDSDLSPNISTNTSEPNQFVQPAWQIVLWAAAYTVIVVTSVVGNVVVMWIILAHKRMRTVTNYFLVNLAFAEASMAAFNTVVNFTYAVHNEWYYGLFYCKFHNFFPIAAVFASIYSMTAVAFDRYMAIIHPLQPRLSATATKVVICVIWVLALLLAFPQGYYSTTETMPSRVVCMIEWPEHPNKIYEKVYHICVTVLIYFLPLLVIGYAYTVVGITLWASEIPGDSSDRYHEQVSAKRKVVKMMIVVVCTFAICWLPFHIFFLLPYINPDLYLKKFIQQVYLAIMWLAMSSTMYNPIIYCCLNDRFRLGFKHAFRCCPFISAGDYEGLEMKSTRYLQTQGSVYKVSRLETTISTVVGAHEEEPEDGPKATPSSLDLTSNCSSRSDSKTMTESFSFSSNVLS

In patent publication US6869957B1, “Non-peptide tachykinin receptor antagonists” (Eli Lilly and Company, priority 1993, dated 2005):

Tests used:
[1] = target: human NK-2 receptor (Homo sapiens, UniProt P21452); experiment: NK-2 Receptor Binding Assay ([125I]iodohistidyl-neurokinin A, CHO-hNK-2R membranes); conditions: read-out: NK-2 IC50 nM; inhibits fifty percent of binding of [125I]iodohistidyl-neurokinin A to CHO-hNK-2R membranes
[2] = target: NK-1 receptor (Homo sapiens, UniProt P25103); experiment: NK-1 Receptor Binding Assay (125I-labeled substance P, IM9 cells); conditions: read-out: NK-1 IC50 nM; inhibits fifty percent of binding of 125I-substance P to IM9 cells

SMILES: COc1ccccc1CN(CC(Cc1c[nH]c2ccccc12)NC(=O)CNCC(=O)Nc1ccccc1)C(C)=O (stereo not shown)
- IC50 [1]: 510 nM
- IC50 [2]: 41.1 nM

SMILES: COc1ccccc1CN(CC(Cc1c[nH]c2ccccc12)NC(=O)CN1CCN(c2ccccc2)CC1)C(=O)CBr (stereo not shown)
- IC50 [1]: 480 nM
- IC50 [2]: 4.4 nM
